Source: PubChem BioAssay AID2718 (Broad Institute, 2010)
Only a part is listed here, and it is no random draw. Some salts and complexes are drawn in separate pieces, as the source files them; their charges need not balance. Calls of active or inactive are those of the source. No stated cut-off is given here; in the data, active means inhibition above about 26% (passing the limit was not always enough); inconclusive means no clear call, values can overlap the other calls.

The chains behind the UniProt entries cited, without tags or fusion partners.
UniProt O15379, whole entry: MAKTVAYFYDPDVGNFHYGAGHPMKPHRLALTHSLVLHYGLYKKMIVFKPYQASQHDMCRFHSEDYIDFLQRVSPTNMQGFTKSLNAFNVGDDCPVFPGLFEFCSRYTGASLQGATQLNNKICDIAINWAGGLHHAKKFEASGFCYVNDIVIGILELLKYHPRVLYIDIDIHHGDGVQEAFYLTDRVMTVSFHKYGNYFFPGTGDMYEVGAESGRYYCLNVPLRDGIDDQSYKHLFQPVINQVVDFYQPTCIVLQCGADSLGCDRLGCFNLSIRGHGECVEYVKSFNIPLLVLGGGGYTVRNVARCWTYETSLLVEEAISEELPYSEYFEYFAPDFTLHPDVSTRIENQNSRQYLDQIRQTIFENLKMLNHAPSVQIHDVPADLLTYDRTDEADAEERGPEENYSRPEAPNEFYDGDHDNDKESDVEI

Molecular target: Histone deacetylase 3 (Homo sapiens) (UniProt O15379)
Test: inhibition of human HDAC3 enzyme activity – biochemical, fluorescence, cell-free homogeneous, primary screen (AID 2718)
Conditions: recombinant HDAC3, fluorogenic peptide/trypsin coupled, at 8.3 µM, stronger effect = higher value

SMILES | inhibition
COc1ccc(OP(C)(=O)Nc2ccccn2)cc1 (configuration not stated) | inactive: -1.79%
CN(C)CCOC(=O)C(O)(c1ccccc1)C1CCCC1 (configuration not stated) | inactive: 6.47%
COc1ccccc1OP(C)(=O)Nc1ccc(Br)cc1 (configuration not stated) | inactive: -0.827%
CP(=O)(Nc1ccccn1)Oc1ccccc1 (configuration not stated) | inactive: -3.97%
CCc1ccc(OP(C)(=O)O)cc1 | inactive: 6.34%
Cc1c(NP(C)(=O)Oc2ccc(C(C)C)cc2)c(=O)n(-c2ccccc2)n1C (configuration not stated) | inactive: -0.294%
O=[N+]([O-])c1cc([N+](=O)[O-])c(Nc2ccccn2)c([N+](=O)[O-])c1 | inactive: -5.19%
CP(=O)(Nc1ccccc1F)Oc1ccccc1 (configuration not stated) | inactive: -4.83%
CC(C)c1ccc(OP(C)(=O)Nc2ccc(SC(F)(F)F)cc2)cc1 (configuration not stated) | active: 32.2%
COc1ccc2c(c1O)-c1c(O)c(OC)cc3c1[C@H](C2)[N+](C)(C)CC3.O=[N+]([O-])c1cc([N+](=O)[O-])c([O-])c([N+](=O)[O-])c1[O-] | inactive: -3.24%
O=C(OC1CN2CCC1CC2)c1ccc([N+](=O)[O-])cc1 (configuration not stated) | inactive: 2.27%
O=C(OCCN1CCN(CCOCc2ccccc2)CC1)C(O)(c1ccccc1)c1ccccc1 | inactive: -6.09%
CCOC(=O)c1ccc(NP(C)(=O)Oc2ccc(F)cc2)cc1 (configuration not stated) | inactive: 1.22%
COc1ccc(OP(C)(=O)Nc2ccc(SC(F)(F)F)cc2)cc1 (configuration not stated) | inactive: 13%
CP(=O)(Nc1ccccc1)Oc1ccc(F)cc1 (configuration not stated) | inactive: 5.09%
O=[N+]([O-])c1cc([N+](=O)[O-])c(OC2CCCCC2O)c([N+](=O)[O-])c1 (configuration not stated) | inactive: 3.86%
CCCCCOc1ccc(NP(C)(=O)Oc2ccc(Cl)cc2Cl)cc1 (configuration not stated) | inactive: 6.4%
CCN(CC)CCCOC(=O)C(O)(c1ccccc1)C1CCCCC1 (configuration not stated) | inactive: -0.275%
CN(C)CCOC(=O)C(O)(c1ccccc1)C1CCCCC1 (configuration not stated) | inactive: 3.24%
COc1ccc(NP(C)(=O)Oc2ccccc2OC)cc1 (configuration not stated) | inactive: 1.4%
COc1ccc(OP(C)(=O)Nc2cccc(Br)c2)cc1 (configuration not stated) | inactive: 9.02%
O=[N+]([O-])c1ccc(OP2(=O)COCCO2)cc1 (configuration not stated) | inactive: -0.148%
O=[N+]([O-])c1cc([N+](=O)[O-])c(NCC2CCS(=O)(=O)C2)c([N+](=O)[O-])c1 (configuration not stated) | inactive: 2.7%
CCOP(C)(=S)SCC(=O)NC(C)(CC)C(=O)O (configuration not stated) | inactive: -3.68%
CP(=O)(Nc1ccc(SC(F)(F)F)cc1)Oc1ccc(F)cc1 (configuration not stated) | inactive: 11.1%
Cc1ccccc1NP(C)(=O)Nc1ccccc1C | inactive: -8.85%
CP(=O)(Nc1ccc2c(c1)OCCO2)Oc1ccccc1 (configuration not stated) | inactive: 0.499%
